Like-named read-outs stand apart in the source and are kept apart here. Some compounds may have been tested in ways that are not shown here.
Key:
[1] = % of fentanyl; cited from earlier work
[2] = 1 mcg/hr sufentanil, osmotic pump; cited from earlier work
[3] = cited from earlier work
[4] = Solubility recrystallization study (drug solubility in polymer); conditions: for Solubility assessed by recrystallization study: 4 weeks 40° C./75% RH

CCC(=O)N(c1ccccc1)C1(COC)CCN(CCc2cccs2)CC1
solubility in skin relative to fentanyl [1]: 25-50%
average plasma concentration at steady state delivery of 1 mcg/hr [2]: about 15.2 pg/ml
Mean Plasma Concentration ([3]; i.v. infusion 0.10 microg/kg/h, 24 h, postoperative major abdominal or urological surgery (Menigaux et al. '01)): 0.11 ng/mL
Mean Plasma Concentration ([3]; i.v. infusion 0.11 microg/kg/h, 24 h, postoperative major abdominal surgery (Geller et al. '93)): ~0.03 to 0.06 ng/mL
Mean Plasma Concentration ([3]; i.v. infusion 0.12 microg/kg/h, 17 h, postoperative elective major gynecological surgery (Lehmann et al. '91)): 0.035 ng/mL
Mean Plasma Concentration ([3]; i.v. infusion 0.15 microg/kg/h, 6 h, normal human volunteers (Fisher et al. '03)): [~110] pg/ml
saturation solubility within patch material ([4]; PIB matrix material): about 2.5 % (w/w)
Solubility assessed by recrystallization study ([4]; in Bio-PSA 7-4602, silicone elastomer): 7 ± 1.5%
Solubility assessed by recrystallization study ([4]; in Durotak 387-2516, polyacrylate copolymer): 7 ± 1.5%
Solubility assessed by recrystallization study ([4]; in Oppanol B100 and B10, polyisobutylene): 2.5 ± 0.3%

— patent publication US20090130190A1
